# Tested on: HCV genotype 1b I389Iuc-ubi-neo/NS3-3′/5.1 replicon in Huh5.2 cells
# Assay type: cell-based, Hepatitis C Virus
# Details: Huh5.2 replicon assay
# Description: Antiviral efficacy against genotype 1 HCV may be tested as follows: One day before addition of the test article, Huh5.2 cells, containing the HCV genotype 1b I389Iuc-ubi-neo/NS3-3′/5.1 replicon (Vrolijk et al., 2003) and subcultured in cell growth medium [DMEM (Cat No. 41965039) supplemented with 10% FCS, 1% non-essential amino acids (11140035), 1% penicillin/streptomycin (15140148) and 2% Geneticin (10131027); Invitrogen] at a ratio of 1.3-1.4 and grown for 3-4 days in […] tissue culture flasks (Techno Plastic Products), were harvested and seeded in assay medium (DMEM, 10% FCS, 1% non-essential amino acids, 1% penicillin/streptomycin) at a density of 6500 cells/well (100 uL/well) in 96-well tissue culture microtitre plates (Falcon, Beckton Dickinson for evaluation of the anti-metabolic effect and CulturPlate, Perkin Elmer for evaluation of antiviral effect). […]
# For the evaluation of antiviral effects, assay medium is aspirated and the cell monolayers are washed with PBS. […] Subsequently, 50 uL of Luciferase Assay System (Cat. No. E1501, Promega) is added and the luciferase luminescence signal is quantified immediately (1000 ms integration time/well, Safire^2, Tecan). Relative luminescence units are converted to percentage of untreated controls.
# The selectivity index (SI), indicative of the therapeutic window of the compound, is calculated as CC50/EC50. […]
compound,measurement,value
"CC[C@H]1C[C@H](C)[C@@]2(NC1=O)O[C@@H](C[C@H](O)[C@@H](C)CC/C=C/C=C(\C)[C@@H]1C/C=C/C=C/[C@H](O)[C@H](C)[C@@H](O)[C@@H](CCC(C)=O)C(=O)N[C@@H](C(C)C)C(=O)N[C@@H](Cc3ccccc3)C(=O)N3CCCC(N3)C(=O)O1)[C@H](C)[C@H](O)[C@@H]2C (stereo partly shown) [Compound 18, 61-Deshydroxy Sanglifehrin A]",Selectivity index (CC50/EC50),3.5

# Source: patent publication US9271977B2, “Sanglifehrin derivatives and methods for their production” (NeuroVive Pharmaceutical AB, priority 2010, dated 2016)
